Consider 1 molecule from patent publication US10881656B2, “HIF inhibitors and use thereof” (The General Hospital Corporation, priority 2008, dated 2021).

One test relates to HIF-2a. Briefly: Western blot for HIF-2a protein expression. The test is classed as cell-based, human. The settings on record: 786-O cells.
A further test deals with T1, IRP1 (Homo sapiens, UniProt P21399).
T1 sequence (P21399 1-889): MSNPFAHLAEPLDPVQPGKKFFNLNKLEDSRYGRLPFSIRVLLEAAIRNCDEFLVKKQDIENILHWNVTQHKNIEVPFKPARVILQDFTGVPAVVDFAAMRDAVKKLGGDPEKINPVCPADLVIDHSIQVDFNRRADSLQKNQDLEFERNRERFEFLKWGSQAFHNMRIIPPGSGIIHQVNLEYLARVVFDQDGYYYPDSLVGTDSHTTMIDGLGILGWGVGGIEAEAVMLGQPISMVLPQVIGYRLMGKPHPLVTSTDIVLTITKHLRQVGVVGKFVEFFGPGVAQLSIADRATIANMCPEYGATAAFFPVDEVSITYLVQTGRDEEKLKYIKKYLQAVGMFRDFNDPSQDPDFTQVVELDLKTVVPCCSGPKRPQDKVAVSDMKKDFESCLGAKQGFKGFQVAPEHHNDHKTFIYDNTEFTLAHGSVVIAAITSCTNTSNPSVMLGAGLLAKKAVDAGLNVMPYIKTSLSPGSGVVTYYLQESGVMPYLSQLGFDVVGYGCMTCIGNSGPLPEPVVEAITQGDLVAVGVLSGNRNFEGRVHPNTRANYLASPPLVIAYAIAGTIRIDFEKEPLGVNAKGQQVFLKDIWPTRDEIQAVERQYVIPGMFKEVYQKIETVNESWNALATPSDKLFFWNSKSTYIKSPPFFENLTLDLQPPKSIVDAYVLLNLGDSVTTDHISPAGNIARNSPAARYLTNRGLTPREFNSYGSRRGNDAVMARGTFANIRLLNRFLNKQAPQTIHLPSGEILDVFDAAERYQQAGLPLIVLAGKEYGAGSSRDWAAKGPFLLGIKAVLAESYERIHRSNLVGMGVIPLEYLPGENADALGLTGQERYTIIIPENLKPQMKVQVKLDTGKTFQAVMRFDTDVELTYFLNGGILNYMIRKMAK
Briefly: HIF-2a activity (EGLN3 qRT-PCR) in IRP knock down lines. The settings on record: 786-O IRP knock down lines.

Regarding `CCCCC/C=C/C=C1/C(=O)C=C[C@@H]1C/C=C\CCCC(=O)O` [PGJ2, 15-deoxy-Δ^12,14-prostaglandin J2], the HIF-2a protein expression entry in the test with HIF-2a is on record as “decreased”. For the same molecule, at IRP1, the “effect on HIF-2a activity when IRP1 is knocked down” value is listed as “down regulation of IRP1 abolished the ability of PGJ2 to repress HIF2a activity”.
